Reference: article PMC10698161, “Investigation of monoclonal antibody CSX-1004 for fentanyl overdose” (2023)
“And” between values parts separate entries of the source, which are not always exact repeats. Identical values can stand only once.

System: CSX-1004
Assay: Competitive SPR assay (CSX-1004 pre-incubated with compound, fentanyl-BSA coated sensor chip)
Details: for Response (RU): repeats 1-3
[1] = 30 µM compound, batch 1 (No Compound Control 74.33-81.4 RU)
[2] = 10 µM compound, batch 2 (No Compound Control 132.47-141.98 RU)
[3] = 20 µM compound, batch 1 (No Compound Control 74.33-81.4 RU)

Compound: O=C1CC[C@@]2(O)[C@H]3Cc4ccc(O)c5c4[C@@]2(CCN3CC2CC2)[C@H]1O5
- CSX-1004 cross-reactivity (in words): lacked CSX-1004 cross-reactivity
- Response (RU) [1]: 71.11 RU and 66.89 RU and 52.76 RU

Compound: C=CCN1CC[C@]23c4c5ccc(O)c4O[C@H]2C(=O)CC[C@@]3(O)[C@H]1C5
- CSX-1004 cross-reactivity (in words): lacked CSX-1004 cross-reactivity
- Response (RU) [1]: 83.33 RU and 69.07 RU and 67.73 RU

Compound: CO[C@]12CC[C@@]3(C[C@@H]1[C@](C)(O)C(C)(C)C)[C@H]1Cc4ccc(O)c5c4[C@@]3(CCN1)[C@H]2O5
- Response (RU) (24 µM compound, batch 1 (No Compound Control 74.33-81.4 RU)): 64.04 RU and 53.15 RU and 57.97 RU

Compound: CO[C@]12CC[C@@]3(C[C@@H]1[C@](C)(O)C(C)(C)C)[C@H]1Cc4ccc(O)c5c4[C@@]3(CCN1CC1CC1)[C@H]2O5
- Response (RU) (21 µM compound, batch 1 (No Compound Control 74.33-81.4 RU)): 65.91 RU and 62.88 RU and 60.49 RU

Compound: CN1CC[C@]23c4c5ccc(O)c4O[C@H]2C(=O)CC[C@@]3(O)[C@H]1C5
- Response (RU) [2]: 132.73 RU and 133.43 RU and 130.44 RU

Compound: COc1ccc2c3c1O[C@H]1C(=O)CC[C@H]4[C@@H](C2)N(C)CC[C@]314
- Response (RU) [3]: 60.4 RU and 57.84 RU and 54.87 RU

Compound: β-Endorphin
- CSX-1004 cross-reactivity (in words): lacked CSX-1004 cross-reactivity
- Response (RU) [2]: 136.63 RU and 134.21 RU and 136.11 RU

Compound: COc1ccc2c3c1O[C@H]1[C@@H](O)C=C[C@H]4[C@@H](C2)N(C)CC[C@@]341
- Response (RU) [2]: 129.19 RU and 127.72 RU and 126.75 RU

Compound: Dynorphin A
- Response (RU) [2]: 253.61 RU and 211.28 RU and 187.91 RU

Compound: COc1ccc2c3c1O[C@H]1C(=O)CC[C@@]4(O)[C@@H](C2)N(C)CC[C@]314
- CSX-1004 cross-reactivity (in words): lacked CSX-1004 cross-reactivity
- Response (RU) [3]: 60.09 RU and 59.65 RU and 54.98 RU

Compound: Leu-Enkephalin
- Response (RU) [2]: 128.82 RU and 128.06 RU and 110.9 RU

Compound: CCC(=O)C(CC(C)N(C)C)(c1ccccc1)c1ccccc1 (stereo not shown)
- CSX-1004 cross-reactivity (in words): lacked CSX-1004 cross-reactivity
- Response (RU) [2]: 129.77 RU and 129.64 RU and 127.04 RU

Compound: CC(=O)O[C@H]1C=C[C@H]2[C@H]3Cc4ccc(O)c5c4[C@@]2(CCN3C)[C@H]1O5
- Response (RU) (2 µM compound, batch 1 (No Compound Control 74.33-81.4 RU)): 64.52 RU and 61.08 RU and 59.22 RU

Compound: CN1CC[C@]23c4c5ccc(O)c4O[C@H]2C(=O)CC[C@H]3[C@H]1C5
- Response (RU) [2]: 129.57 RU and 130.31 RU and 129.18 RU
